## Curated experimental data: melting point values

From the experimental data distributed with OPERA 2.9.

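The numbers are reported measurements, compiled and curated for the OPERA QSAR suite. A listed value is a point estimate from one report or more. How each value was measured is not recorded, so precision varies. The measured form (salt, isomer or mixture) is not always the one drawn. Some upstream entries may be estimates or bounds without being marked so.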

The melting point is given in degrees Celsius.
"–" marks a cell with nothing listed here.
"via" names the databases from which the curators took the value.

structure (SMILES) | name | melting point (°C) | via
Nc1ccccc1-n1cnnn1 | 2-(1H-Tetrazol-1-yl)aniline | 85 | OCHEM
Nc1nncc(-c2ccc(Br)cc2)n1 | 5-(4-bromophenyl)-1,2,4-triazin-3-amine | 259 | OCHEM
Cc1ccc(C)c(N2C(=O)C=CC2=O)c1 | 1-(2,5-Dimethylphenyl)-1H-pyrrole-2,5-dione | 80 | OCHEM
COC(=O)c1ccc(COc2ccccc2C=O)cc1 | 4-(2-Formyl-phenoxymethyl)-benzoic acid methyl ester | 91 | OCHEM
NC1=NCN([C@@H]2O[C@H](CO)[C@@H](O)[C@H]2O)C(=O)N1 | 5,6-Dihydro-5-azacytidine | 183.6 | PubChem
O=C(O)CSCc1ccc(Cl)cc1 | [(4-chlorobenzyl)thio]acetic acid | 58 | OCHEM
COC(=O)C(=O)CC(=O)c1ccc(OC)cc1 | methyl 4-(4-methoxyphenyl)-2,4-dioxobutanoate | 105 | OCHEM
ClC(Cl)(Cl)C(c1ccccc1)c1ccccc1 | 1,1'-(2,2,2-Trichloroethylidene)dibenzene | 65 | PubChem
O=C(O)CNc1cccc(Cl)c1 | 2-[(3-chlorophenyl)amino]acetic Acid | 175 | OCHEM
CNC(=O)Cc1ccc(N)cc1 | 2-(4-Aminophenyl)-N-methylacetamide | 85 | OCHEM
COc1ccccc1C=Cc1ccc(-c2ccc(C=Cc3ccccc3OC)cc2)cc1 | 1,1'-Biphenyl, 4,4'-bis[2-(2-methoxyphenyl)ethenyl]- | 219.6 | eChemPortal
COc1cc(C=O)c([N+](=O)[O-])cc1O | 4-hydroxy-5-methoxy-2-nitrobenzaldehyde | 208 | OCHEM
CC(c1cc(-c2ccccc2)c(O)c(-c2ccccc2)c1)(c1cc(-c2ccccc2)c(O)c(-c2ccccc2)c1)C(F)(F)F | – | 228.5 | eChemPortal
COc1ccc(S(=O)(=O)Cl)cc1C | 4-Methoxy-3-methylbenzene-1-sulfonyl chloride | 52 | OCHEM
COC=C(C(=O)OC)c1ccccc1CCl | Methyl 2-(2-(chloromethyl)phenyl)-3-methoxyacrylate | 91.5 | eChemPortal
COc1ccc(C(=O)Nc2ccccc2C(=O)O)cc1 | 2-[(4-methoxybenzoyl)amino]benzoic Acid | 185 | OCHEM
O=C(O)COc1cc(Cl)ccc1Cl | 2,5-Dichlorophenoxyacetic acid | 147 | OCHEM
FC(F)(F)C(F)(F)C(F)(F)C(F)(F)C(F)(F)C(F)(F)C(F)(F)C(F)(F)CC1CO1 (centres undefined) | 3-(Perfluorooctyl)-1,2-propenoxide | 77 | ChemicalBook
NC(=O)C1CCCN1C(=O)COC(=O)c1ccccc1 (centres undefined) | 2-(2-Carbamoyl-1-pyrrolidinyl)-2-oxoethyl benzoate | 194 | OCHEM
Cc1nsc(Nc2ccccc2)c1C#N | 5-anilino-3-methylisothiazole-4-carbonitrile | 173 | OCHEM
O=[N+]([O-])c1c(OCCO)nn2ccccc12 | 2-((3-Nitropyrazolo(1,5-a)pyridin-2-yl)oxy)ethanol | 165.6 | eChemPortal
Fc1ccc(C2=CCC(C3CCC4(CC3)OCCO4)CC2)cc1F (centres undefined) | – | 101.6 | eChemPortal
Nc1cccc(C(F)(F)F)c1Cl | 2-chloro-3-(trifluoromethyl)aniline | 26.5 | OCHEM
CC(=O)c1ccc(NS(=O)(=O)c2ccc(Cl)cc2)cc1 | N-(4-Acetyl-phenyl)-4-chloro-benzenesulfonamide | 133 | OCHEM
Cc1ccc(-c2csc(CC#N)n2)cc1 | 2-[4-(4-methylphenyl)-1,3-thiazol-2-yl]acetonitrile | 92 | OCHEM
O=C1C=C(O)CC(c2ccccc2)C1 (centres undefined) | 3-hydroxy-5-phenylcyclohex-2-en-1-one | 186.5 | OCHEM
CCc1nnc(-c2ccccn2)nc1CC | 5,6-Diethyl-3-(pyridin-2-yl)-1,2,4-triazine | 69.5 | OCHEM
Cc1sc(C(=O)O)cc1[N+](=O)[O-] | 5-methyl-4-nitrothiophene-2-carboxylic acid | 98 | OCHEM
O=C(O)C=Cc1ccc(SC(F)(F)F)cc1 | 3-{4-[(Trifluoromethyl)sulfanyl]phenyl}prop-2-enoic acid | 213 | OCHEM
COc1c(OC)c(OC(C)=O)c2cc(C#N)ccc2c1OC(C)=O | 6-Cyano-2,3-dimethoxy-1,4-naphthalenediyl diacetate | 124 | OCHEM
CCOc1cccc2cc(C(C)=O)oc12 | 1-(7-Ethoxy-1-benzofuran-2-yl)ethan-1-one | 73 | OCHEM
CNc1ccc(C=O)cc1[N+](=O)[O-] | 4-(methylamino)-3-nitrobenzaldehyde | 119 | OCHEM
O=C(O)C1(c2ccc(Br)cc2)CCC1 | 1-(4-Bromophenyl)cyclobutane-1-carboxylic acid | 118 | OCHEM
O=C(O)CCCc1nc(-c2ccc(Cl)cc2)no1 | 4-[3-(4-chlorophenyl)-1,2,4-oxadiazol-5-yl]butanoic acid | 109 | OCHEM
Nc1ccc(-c2cccc(C(F)(F)F)c2)cc1 | – | 66 | OCHEM
O=C(CCCCl)c1ccc(O)cc1 | 4-Chloro-4'-hydroxybutyrophenone | 112.5 | OCHEM
O=C1CCC(C(=O)O)CN1 (centres undefined) | 6-oxopiperidine-3-carboxylic acid | 175 | OCHEM

Again, the 3 entries with the lowest melting point:

| structure (SMILES) | name | melting point (°C) | via |
|---|---|---|---|
| Nc1cccc(C(F)(F)F)c1Cl | 2-chloro-3-(trifluoromethyl)aniline | 26.5 | OCHEM |
| COc1ccc(S(=O)(=O)Cl)cc1C | 4-Methoxy-3-methylbenzene-1-sulfonyl chloride | 52 | OCHEM |
| O=C(O)CSCc1ccc(Cl)cc1 | [(4-chlorobenzyl)thio]acetic acid | 58 | OCHEM |